Measurements from PubChem BioAssay AID504326 (The Scripps Research Institute Molecular Screening Center, 2011).
The entries are a selection whose mix differs from that of the whole data set. Calls of active or inactive are those of the source. Rule as the data show it: active = activation above about 18%; inactive = the rest.

Amino acid sequences for entries named in this document (tags omitted).
UniProt P35372, whole entry, looked up: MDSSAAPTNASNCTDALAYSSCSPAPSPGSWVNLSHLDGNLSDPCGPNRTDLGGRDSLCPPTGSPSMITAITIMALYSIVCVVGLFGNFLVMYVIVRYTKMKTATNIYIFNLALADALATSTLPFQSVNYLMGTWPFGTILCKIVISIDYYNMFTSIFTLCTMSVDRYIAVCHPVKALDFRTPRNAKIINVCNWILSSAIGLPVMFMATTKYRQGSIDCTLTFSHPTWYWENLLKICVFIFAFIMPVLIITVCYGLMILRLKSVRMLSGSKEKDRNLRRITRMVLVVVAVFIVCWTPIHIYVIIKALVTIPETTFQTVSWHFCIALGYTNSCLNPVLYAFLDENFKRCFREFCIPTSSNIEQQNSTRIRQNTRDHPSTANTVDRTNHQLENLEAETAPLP
UniProt P41143, whole entry, looked up: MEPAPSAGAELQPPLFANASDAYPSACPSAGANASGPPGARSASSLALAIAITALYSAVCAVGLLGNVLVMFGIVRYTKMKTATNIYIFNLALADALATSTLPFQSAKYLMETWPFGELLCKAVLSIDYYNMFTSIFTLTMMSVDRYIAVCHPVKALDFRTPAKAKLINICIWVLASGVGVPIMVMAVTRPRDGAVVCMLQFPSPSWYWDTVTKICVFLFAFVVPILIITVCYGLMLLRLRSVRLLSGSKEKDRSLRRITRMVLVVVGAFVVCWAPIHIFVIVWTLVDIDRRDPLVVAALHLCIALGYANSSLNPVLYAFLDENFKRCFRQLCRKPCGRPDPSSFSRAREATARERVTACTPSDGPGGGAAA

biological target: Mu-type opioid receptor (Homo sapiens) + Delta-type opioid receptor (Homo sapiens) (UniProt P35372+P41143); experiment: inducers of mu-delta opioid receptor heterodimers – cell-based, luminescence, primary screen (AID 504326); details: cells, OPRM1-OPRD1 heterodimerization, at 9.3 µM, stronger effect = higher value;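 also: 0% = vehicle-treated cells and 100% = reference agonist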

| SMILES | activation |
| --- | --- |
| O=C(CSc1nc2ccccc2n1CC(=O)NCc1ccccc1)NCc1ccco1 | inactive: -2.33% |
| CC(=O)Nc1ccc(NC(=O)C2CC(=O)Nc3nc4ccccc4n32)cc1 (centres undefined) | inactive: -2.38% |
| COc1ccc(Cl)cc1NC(=O)Cn1c(NCCO)nc2ccccc21 | inactive: -1.62% |
| O=C(Cn1cnc2c(OCc3ccccc3)ncnc21)N[C@H](CO)Cc1cc2ccccc2[nH]1 | inactive: -2.97% |
| O=C(Cn1cnc2ccccc21)Nc1cc(C(F)(F)F)ccc1N1CCOCC1 | inactive: -0.03% |
| CC(C)(C)NC(=O)Cn1c(SCC(=O)NCc2cccs2)nc2ccccc21 | inactive: -3.59% |
| O=C(Cn1c(=O)n(CC2CS2)c2ccccc21)N1CCCCCC1 (centres undefined) | inactive: 0.9% |
| O=C(Cn1c(SCC(=O)N2CCc3ccccc32)nc2ccccc21)NC1CCCC1 | inactive: -0.71% |
| CCn1cc(Cl)c(C(=O)Nc2nc3ccccc3n2CCN2CCCCC2)n1 | inactive: -0.62% |
| CCCC(=O)Nc1ccc(C(=O)/C=C/c2ccc(SC)cc2)cc1 | inactive: 1% |
| O=C(Cn1c(C(F)(F)F)nc2ccccc21)NCCN1CCCC1 | inactive: -0.23% |
| c1ccc2c(c1)nc(-c1ccncc1)n2CCNc1nc(CN2CCCCC2)cs1 | inactive: -3.74% |
| Cc1cccc(C)c1NC(=O)N1CCC(n2c(=O)[nH]c3ccccc32)CC1 | inactive: -1.77% |
| Cc1cccc(Cn2c(=O)c3c(nc4n3CCN4Cc3ccco3)n(C)c2=O)c1 | inactive: -2.61% |
| Cc1nn(-c2ccccc2)c2c1P(=O)(N1CCOCC1)N(C)C(c1ccccc1)=N2 (centres undefined) | inactive: -0.86% |
| Cc1ccc(C(=O)OC2CN3CCC2CC3)cc1 (centres undefined) | inactive: -1.89% |
| CC1CCC(C(C)C)C(OP(=O)(Nc2ccccn2)c2ccccc2)C1 (centres undefined) | inactive: 6.38% |
| CCN(CC)C(=O)Cn1c(=O)n(C)c2ccccc21 | inactive: 0.55% |
| CCN(CC)c1ccc(NC(=O)Cn2c(C(C)NC(=O)c3ccccc3)nc3ccccc32)cc1 (centres undefined) | inactive: 0.06% |
| O=C(Cn1cnc2c(OCc3ccccc3)ncnc21)NCCCc1ccccc1 | inactive: -1.64% |
| CCC(=O)Nc1nnc(/C=C/c2ccccc2)s1 | inactive: 1.47% |
| COCCN1CCn2c(nc3cc(NC(=O)c4ccc(OC)cc4)ccc32)C1 | inactive: 1.38% |
| CCC(C)c1ccc2oc(-c3ccc(NC(=O)Cn4cnc5c(=O)n(C)c(=O)n(C)c54)cc3)nc2c1 (centres undefined) | inactive: -1.39% |

| SMILES | activation |
| --- | --- |
| CCS(=O)(=O)c1nc2ccccc2n1CC(=O)N1CCOCC1 | inactive: -3.11% |
| O=C(Cn1c(CC(=O)N2CCOCC2)nc2ccccc21)Nc1ccc2c(c1)OC(F)(F)O2 | inactive: -1.78% |
| O=[N+]([O-])c1ccc(Nc2ccc(Oc3ccc([N+](=O)[O-])cc3[N+](=O)[O-])cc2)c([N+](=O)[O-])c1 | inactive: -2.55% |
| Cc1cc(SC(NC=O)C(Cl)(Cl)Cl)ncn1 (centres undefined) | inactive: -2.57% |
| CCc1nc2ccccc2n1CC(=O)N1CCN(S(=O)(=O)c2cccc(C(F)(F)F)c2)CC1 | inactive: -0.78% |
| O=P(Nc1ccccn1)(c1cccc2ccccc12)c1cccc2ccccc12 | inactive: -1.37% |
| COc1ccccc1C(=O)OCCNC(=O)Cn1cnc2c1c(=O)n(C)c(=O)n2C | inactive: -0.58% |
| O=C(Cn1c(CCCO)nc2ccccc21)Nc1ccccc1-c1ccccc1 | inactive: -2.01% |
| C/C(=N\NC(=O)Cn1c(C)nc2ccccc21)c1cccs1 | inactive: -4.2% |
| CC(C)(C)NC(=O)Cn1c(SCC(=O)NC2CCCCC2)nc2ccccc21 | inactive: -2.72% |
| CCCNC(=O)Cn1c(=O)n(C)c2ccccc21 | inactive: -0.59% |
| CCNC(=S)N1CCn2c(nc3ccccc32)C1 | inactive: -0.57% |
| CC1CN(Cc2nc3c(c(=O)n(C)c(=O)n3C)n2CCN2CCOCC2)CC(C)O1 (centres undefined) | inactive: -2.79% |
| Cn1c(=O)c2c(ncn2CC(=O)N/N=C/c2ccc(Br)s2)n(C)c1=O | inactive: -0.81% |
| COC(=O)c1ccccc1NC(=O)Cn1cnc2c1c(=O)n(C)c(=O)n2C | inactive: -1.53% |
| Cn1c(=O)n(Cc2ccccc2)c(=O)c2c1nc1n2CCN1Cc1ccco1 | inactive: -3.28% |
| O=C(Cn1c(CO)nc2ccccc21)Nc1ccc2c(c1)OCCCO2 | inactive: -0.87% |
| COC(=O)C[C@H](NC(=O)Cn1cnc2c(OCc3ccccc3)ncnc21)C(=O)OC | inactive: -0.32% |
| Cn1c(=O)[nH]c(=O)c2c1ncn2CCN1CCCCC1 | inactive: -1.86% |
| CCOC(=O)Nc1cccc([As](=O)(O)O)c1 | inactive: -1.29% |
| Cc1ccc(NC(=O)Cn2c(=S)[nH]c3ccccc32)cc1 | inactive: -1.37% |
| Cn1c(=O)c2c(ncn2CC(=O)NCc2cccnc2)n(C)c1=O | inactive: 0.46% |
| NNC(=O)Cn1c(-c2ccccn2)nc2ccccc21 | inactive: 1.16% |

| SMILES | activation |
| --- | --- |
| COc1cc(NC(=O)[C@H](C)NC(=O)N2CCn3c2nc2ccccc23)cc(OC)c1 | inactive: -3.08% |
| O=C(CCCCCNC(=O)N1CCn2c1nc1ccccc12)NCCc1ccccc1 | inactive: -3.75% |
| Cc1ccc2c(c1)[C@@H]1CN(C)CC[C@@H]1N2S(=O)(=O)c1ccc([N+](=O)[O-])cc1 | inactive: 4.37% |
| COc1ccc(OCC(=O)N2c3ccc(C)cc3C3CN(C)CCC32)cc1 (centres undefined) | inactive: 0.17% |
| CCC[n+]1cn(/C(C(=S)Nc2cccc(Cl)c2C)=C(/[O-])c2ccc(OC)c(OC)c2)c2ccccc21 | inactive: -6.07% |
| Cn1c(=O)c2c(ncn2CC(=O)N2CCc3ccccc3C2)n(C)c1=O | inactive: -2.41% |
| Cc1ccc(-c2csc(N3CCC[C@@H]3C(=O)NCCn3c(C(F)(F)F)nc4ccccc43)n2)cc1 | inactive: 1.96% |
| CCCNC(=O)CC1C(=O)N(Cc2ccccc2)C(C)c2nc3ccccc3n21 (centres undefined) | inactive: 0.63% |
| CSc1nc(N)nc2c1ncn2CC(=O)NCc1ccccc1 | inactive: -0.32% |
| CCCN(C(=O)Cn1c(C(F)(F)F)nc2ccccc21)C1CCS(=O)(=O)C1 (centres undefined) | inactive: -0.95% |
| CC(C)[C@H](NC(=O)N1CCn2c1nc1ccccc12)C(=O)N1CCCCC1 | inactive: -0.34% |
| COc1ccc(/C=N/c2nc3ccccc3n2CCN2CCCCC2)cc1OC | inactive: -1.05% |
| CC(=O)Nc1ccc(NC(=O)Cn2c(CC(=O)N3CCCC3)nc3ccccc32)cc1 | inactive: -2% |
| Cc1cc(SC(NC(=O)c2ccccc2)C(Cl)(Cl)Cl)nc(C(C)C)n1 (centres undefined) | inactive: 0.2% |
| Cc1ccc2c(c1)C1CN(C)CCC1N2C(=O)COc1ccc(N(C)C(=O)C(C)(C)C)cc1 (centres undefined) | inactive: -1.56% |
| Nc1ncnc2c1ncn2CCN1CCOCC1 | inactive: -3.72% |
| CC(C)[C@H](NC(=O)N1CCn2c1nc1ccccc12)C(=O)NC1CCCCC1 | inactive: -3.73% |
| CCN(CC)CCNC(=S)N1CCn2c(nc3ccccc32)C1 | inactive: -2.38% |
| Cc1ccc2c(c1)C1CN(C)CCC1N2C(=O)c1cccs1 (centres undefined) | inactive: -1.31% |
| O=C(Nc1nc2ccccc2n1CCN1CCCC1)c1ccc(Cl)cc1 | inactive: 4.12% |
| CC1c2nc3ccccc3n2C(CC(=O)NCc2ccccn2)C(=O)N1Cc1ccccc1 (centres undefined) | inactive: -2.01% |
| CC(=O)Nc1ccc(C(=O)CSc2nc3ccccc3n2CC(=O)N2CCCC2)cc1 | inactive: -1.59% |
| C[C@H](O)[C@@H]1C(=O)N2CCc3ccc(N4CCN(C)CC4)cc3[C@@H]2C[C@@H]1N(C)C(=O)NC1CCCCC1 | inactive: -0.44% |

| SMILES | activation |
| --- | --- |
| CC1CCNP(=O)(N(CCCl)CCCl)O1 (centres undefined) | inactive: -2.07% |
| O=C(C1CCN(S(=O)(=O)c2cccc3cccnc23)CC1)N1CCn2c1nc1ccccc12 | inactive: -17.3% |
| COCC(=O)N(C)[C@H]1C[C@H]2c3cc(-c4ccccc4)ccc3CCN2C(=O)[C@H]1[C@H](C)O | inactive: -2.6% |
| Cc1ccc(N(CC(=O)N2CCn3c2nc2ccccc23)S(=O)(=O)c2c(C)n[nH]c2C)cc1 | inactive: -1.41% |
| Cc1cc(C)cc(N(CC(=O)N2CCn3c2nc2ccccc23)S(=O)(=O)c2c(C)noc2C)c1 | inactive: -1.79% |
| CCCCC(=O)Nc1nnc(/C=C/c2ccc(OC)cc2)s1 | inactive: 2.17% |
| CC(C)C[C@H](NC(=O)N1CCn2c1nc1ccccc12)C(=O)NCCc1ccccc1 | inactive: -1.27% |
| Nc1ncnc2c1ncn2CCNCCc1ccccc1 | inactive: -2.53% |
| O=C(Cn1c(C(F)(F)F)nc2ccccc21)NCCCN1CCOCC1 | inactive: -3.31% |
| Cc1ccc2c(c1)C1CN(C)CCC1N2C(=O)COc1ccccc1F (centres undefined) | inactive: -0.7% |
| CCOC(=O)Nc1ccc([As](=O)(O)O)c(O)c1 | inactive: -1.41% |
| Cc1ccc(S(=O)(=O)c2nc(-c3ccccc3Cl)oc2N(C)C2CCN(C)CC2)cc1 | inactive: 0.87% |
| COc1ccc(S(=O)(=O)N2CCn3c2nc2ccccc23)cc1 | inactive: 0.53% |
| CSc1nc2ccccc2n1CC(=O)Nc1ccccc1 | inactive: -1.74% |
| Cc1nc2ccccc2n1CCN1CCOCC1 | inactive: -2.72% |
| Cc1ccc2c(c1)C1CN(C)CCC1N2C(=O)Cc1cccs1 (centres undefined) | inactive: 1.51% |
| CN1C(=O)C2(Nc3ccccc3-c3nc4ccccc4n32)c2ccccc21 (centres undefined) | inactive: -3.02% |
| CCC(C)[C@H](NC(=O)N1CCn2c1nc1ccccc12)C(=O)NCc1ccccc1 (some centres undefined) | inactive: 1.66% |
| Cc1ccc(NC(=O)Cn2cnc3ccccc32)cc1C | inactive: -0.44% |
| Cc1ccc2c(c1)[C@@H]1CN(C)CC[C@@H]1N2C(=O)Nc1cccc(C(F)(F)F)c1 | inactive: 3.48% |
